The values below come from PubChem BioAssay AID2267 (National Center for Advancing Translational Sciences (NCATS), 2010).

Amino acid sequences for entries named in this document (tags omitted).
UniProt P14618, whole entry, looked up: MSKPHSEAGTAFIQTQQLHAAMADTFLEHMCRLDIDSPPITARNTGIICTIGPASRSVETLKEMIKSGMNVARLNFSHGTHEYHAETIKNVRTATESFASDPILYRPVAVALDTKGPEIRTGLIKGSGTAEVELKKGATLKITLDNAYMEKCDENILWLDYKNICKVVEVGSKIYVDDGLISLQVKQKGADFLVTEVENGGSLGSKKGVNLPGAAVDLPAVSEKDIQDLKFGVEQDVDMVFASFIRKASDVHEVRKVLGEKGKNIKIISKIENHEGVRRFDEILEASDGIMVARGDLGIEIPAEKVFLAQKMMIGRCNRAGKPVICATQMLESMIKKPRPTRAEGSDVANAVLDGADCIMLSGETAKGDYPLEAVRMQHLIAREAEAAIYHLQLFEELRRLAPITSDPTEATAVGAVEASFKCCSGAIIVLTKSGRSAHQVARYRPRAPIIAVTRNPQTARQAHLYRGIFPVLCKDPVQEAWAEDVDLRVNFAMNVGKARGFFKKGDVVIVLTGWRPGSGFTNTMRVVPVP

The list shows a part of the results, in another mix than the full data. Inconclusive results are not listed. Active and inactive are the calls of the source. The call rests on the fitted dose curve; in most records, active means well fitted inhibition curve with a large enough effect; inconclusive means small, poorly fitted or top-dose-only effect, or effect the other way; inactive means flat fitted curve, though single readings scatter.

The assay has as its target Pyruvate kinase PKM (Homo sapiens) (UniProt P14618). Briefly: Secondary assay for Inhibitors of Human Pyruvate Kinase M2 isoform. To be noted: purified hPK-M2, LDH-coupled NADH fluorescence kinetic; at 57.5 µM (top of the series). An excerpt: NIH Chemical Genomics Center [NCGC] Matthew G. Vander Heiden, M.D., Ph.D. [Harvard Medical School, 77 Avenue Louis Pasteur, Boston, MA 02115] MLPCN Grant: 1 R03 MH085679-01 NCGC Assay Overview: Human pyruvate kinase muscle 2 (hPK-M2)enzyme was supplied as a highly purified (>95% pure) preparation from Harvard Medical School and a secondary assay was used to evaluate compounds. This assay couples the formation of pyruvate from hPK-M2 using lactate dehydrogenase (LDH) and NADH. The depletion of NADH is followed in a fluorescent-based kinetic assay that follows the formation of pyruvate to lactate, as catalyzed LDH (described by Hannaert et al., 2002)1 Pyruvate kinase substrates, PEP and ADP, were present in the assay at 0.1 mM and 4 mM respectively. In this kinetic assay initial rates were determined by following the fluorescence of NADH depletion.
NCGC Assay Protocol Summary: Three uL of substrate mix (final concentration, 50 mM Tris-Cl pH 8.0, 200 mM KCl, 15 mM MgCl2, 0.1 mM PEP, 4.0 mM ADP, and 0.2 mM NADH) was dispensed into black-solid 1536 well plates. 23 nL of compounds were delivered by a pin tool and 1 uL of enzyme mix (final concentrations, 10 nM hPK-M2 and 1 uM of LDH) was added. Plates were immediately placed in ViewLux (Perkin Elmer) and NADH fluorescence was determined at 30 second exposure intervals for between 3 and 6 minutes. Data were normalized to the basal signal.
`Nc1ncnc2c1ncn2C1OC(COP(=O)(O)O)C(O)C1O` (configuration not stated): the activity change, negative = inhibition was inactive: -9.03%. Take `Nc1ncnc2c1ncn2[C@@H]1O[C@H](COP(=O)(O)O)[C@@H](O)[C@H]1O`: the activity change, negative = inhibition is inactive: -8.96%.
